Laboratory results published in publication PMC9634796, “Opioid Antagonists from the Orvinol Series as Potential Reversal Agents for Opioid Overdose” (2022).

Amino acid sequences for entries named in this document (tags omitted).
UniProt P41143, whole entry: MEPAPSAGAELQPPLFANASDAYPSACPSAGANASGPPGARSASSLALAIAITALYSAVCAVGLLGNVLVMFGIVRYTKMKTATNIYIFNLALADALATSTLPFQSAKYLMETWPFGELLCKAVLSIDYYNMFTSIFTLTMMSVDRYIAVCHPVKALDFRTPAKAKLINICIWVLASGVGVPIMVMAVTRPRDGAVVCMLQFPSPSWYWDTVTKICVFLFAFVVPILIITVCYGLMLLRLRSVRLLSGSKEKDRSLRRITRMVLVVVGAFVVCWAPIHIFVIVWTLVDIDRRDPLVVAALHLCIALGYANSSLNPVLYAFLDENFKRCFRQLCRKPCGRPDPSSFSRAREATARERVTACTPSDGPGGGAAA
UniProt P41145, whole entry: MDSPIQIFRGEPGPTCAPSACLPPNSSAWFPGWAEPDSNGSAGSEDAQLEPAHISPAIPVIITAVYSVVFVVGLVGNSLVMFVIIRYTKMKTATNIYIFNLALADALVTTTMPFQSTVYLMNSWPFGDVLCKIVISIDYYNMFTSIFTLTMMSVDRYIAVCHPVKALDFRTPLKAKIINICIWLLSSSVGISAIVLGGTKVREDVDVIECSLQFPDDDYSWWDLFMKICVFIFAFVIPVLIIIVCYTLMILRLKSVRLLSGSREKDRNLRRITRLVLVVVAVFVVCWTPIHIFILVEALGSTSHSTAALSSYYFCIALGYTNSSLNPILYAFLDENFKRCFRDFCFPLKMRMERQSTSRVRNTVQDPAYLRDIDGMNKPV
UniProt P35372, whole entry: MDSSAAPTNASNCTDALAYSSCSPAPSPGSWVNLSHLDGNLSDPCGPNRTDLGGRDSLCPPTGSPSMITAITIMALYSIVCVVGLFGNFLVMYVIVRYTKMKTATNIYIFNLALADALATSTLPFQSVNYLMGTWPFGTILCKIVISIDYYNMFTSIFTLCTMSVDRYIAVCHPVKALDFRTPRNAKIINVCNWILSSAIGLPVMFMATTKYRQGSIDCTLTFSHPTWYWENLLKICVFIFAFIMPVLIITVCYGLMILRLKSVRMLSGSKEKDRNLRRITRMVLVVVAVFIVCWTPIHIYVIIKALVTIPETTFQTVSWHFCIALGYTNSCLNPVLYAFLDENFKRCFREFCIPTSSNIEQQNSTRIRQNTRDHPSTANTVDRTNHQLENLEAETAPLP

Assays:
[1] = target: T1, hDOR (delta-opioid receptor) (Homo sapiens, UniProt P41143); assay: [3H]diprenorphine displacement, CHO membrane homogenates; details: read-out: Ki (nM) ^a / DOR; 25 °C, 1 h, 0.2–0.5 nM 3H-diprenorphine; HCl salt
[2] = target: T2, hKOR (kappa-opioid receptor) (Homo sapiens, UniProt P41145); assay: as above; details: read-out: Ki (nM) ^a / KOR; 25 °C, 1 h, 0.2–0.5 nM 3H-diprenorphine; HCl salt
[3] = target: T3, hMOR (mu-opioid receptor) (Homo sapiens, UniProt P35372); assay: as above; details: read-out: Ki (nM) ^a / MOR; 25 °C, 1 h, 0.2–0.5 nM 3H-diprenorphine; HCl salt
[4] = target: T1, hDOR (delta-opioid receptor); assay: […]GTPγS binding stimulation, CHO membrane homogenates; details: agonist mode; pH 7.4, 100 mM NaCl, 5 mM MgCl2, 30 μM GDP, 25 °C, 60 min; HCl salt
[5] = target: T2, hKOR (kappa-opioid receptor); assay: as above; details: agonist mode; pH 7.4, 100 mM NaCl, 5 mM MgCl2, 30 μM GDP, 25 °C, 60 min; HCl salt
[6] = target: T3, hMOR (mu-opioid receptor); assay: as above; details: agonist mode; pH 7.4, 100 mM NaCl, 5 mM MgCl2, 30 μM GDP, 25 °C, 60 min; HCl salt

Question: Which results are given for `CO[C@]12CC[C@@]3(C[C@]1(C)CO)[C@H]1Cc4ccc(O)c5c4[C@@]3(CCN1CC1CC1)[C@H]2O5`?
Answer: Ki [1]: 0.47 nM; Ki [2]: 0.17 nM; Ki [3]: 0.27 nM; EC50 [4]: > 10000 nM; EC50 [5]: > 10000 nM; EC50 [6]: > 10000 nM
